Usually IC50 stands for the midpoint of a concentration-inhibition curve.

The chains behind the UniProt entries cited, without tags or fusion partners. Residues count along the entry.
UniProt P07333, 20-972 limits assumed: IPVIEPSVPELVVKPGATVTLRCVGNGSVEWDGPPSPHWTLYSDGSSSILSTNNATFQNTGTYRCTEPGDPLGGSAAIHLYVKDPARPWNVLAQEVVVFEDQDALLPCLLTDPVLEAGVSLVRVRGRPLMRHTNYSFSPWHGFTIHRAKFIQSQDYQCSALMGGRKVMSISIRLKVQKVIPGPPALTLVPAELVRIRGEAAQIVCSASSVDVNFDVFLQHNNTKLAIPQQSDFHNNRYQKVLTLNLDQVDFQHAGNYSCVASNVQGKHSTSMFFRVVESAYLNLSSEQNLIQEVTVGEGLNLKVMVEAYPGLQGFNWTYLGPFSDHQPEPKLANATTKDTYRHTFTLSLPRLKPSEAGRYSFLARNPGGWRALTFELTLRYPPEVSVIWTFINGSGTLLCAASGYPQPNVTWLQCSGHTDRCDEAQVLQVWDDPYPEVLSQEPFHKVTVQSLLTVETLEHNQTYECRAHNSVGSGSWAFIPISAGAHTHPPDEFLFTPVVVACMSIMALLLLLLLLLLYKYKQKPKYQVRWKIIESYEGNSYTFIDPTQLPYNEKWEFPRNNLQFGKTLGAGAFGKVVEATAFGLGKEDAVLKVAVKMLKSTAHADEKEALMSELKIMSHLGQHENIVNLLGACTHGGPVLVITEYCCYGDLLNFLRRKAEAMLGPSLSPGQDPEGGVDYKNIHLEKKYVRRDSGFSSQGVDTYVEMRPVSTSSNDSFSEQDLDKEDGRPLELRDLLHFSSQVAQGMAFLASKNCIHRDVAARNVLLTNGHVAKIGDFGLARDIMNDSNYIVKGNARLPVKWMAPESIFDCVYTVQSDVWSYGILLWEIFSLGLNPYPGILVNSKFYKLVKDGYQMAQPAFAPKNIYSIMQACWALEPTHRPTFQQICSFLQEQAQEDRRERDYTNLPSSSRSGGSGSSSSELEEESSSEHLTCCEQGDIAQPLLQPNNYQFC

The assay addresses FMS kinase (Homo sapiens, UniProt P07333). As to the kind of experiment: Kinase HotSpot cell-free enzyme assay, FMS kinase. Conditions: read-out: IC50 against FMS kinase; 10-dose duplicate assay, mean ± SEM, starting with 81 µM, threefold serial dilution. As to the method:
Reaction Biology Corp. Kinase HotSpot^SM service [http://www.reactionbiology.com] was utilised for screening of the target compounds as per the protocol reported in the literature. In order to calculate the IC50 values and the inhibition percentages at different concentrations, each compound was tested in 10-dose duplicate assay mode starting with 81 µM and threefold serial dilution.
Compounds 1a–r were tested in a 10-dose testing mode starting with 81 µM, threefold serial dilutions, against FMS kinase in a cell-free enzyme assay. […] This can be due to occupancy of a hydrophobic pocket with that additional benzoyl moiety and/or formation of additional hydrogen bond by the carbonyl oxygen.

With `O=C(Nc1ccc(-n2ccc3c(NC(=O)c4ccccc4)nccc32)cc1)c1cc(C(F)(F)F)cc(C(F)(F)F)c1`, the IC50 was greater than 81000 nM.

With `O=C(Nc1cccc(-n2ccc3c(NC(=O)c4ccccc4)nccc32)c1)Nc1cccc(C(F)(F)F)c1`, the half-inhibitory concentration (IC50) was found to be 1430 nM. Then `Nc1nccc2c1ccn2-c1ccc(NC(=O)c2cc(C(F)(F)F)cc(C(F)(F)F)c2)cc1`, with greater than 81000 nM; and `O=C(Nc1ccc(-n2ccc3c(NC(=O)c4ccccc4)nccc32)cc1)Nc1cccc(C(F)(F)F)c1`, with 190 nM.
